In ChEMBL document CHEMBL1938276, “Design and synthesis of 2-heterocyclyl-3-arylthio-1H-indoles as potent tubulin polymerization and cell growth inhibitors with improved metabolic stability” (J Med Chem, 2011) one finds IC50 data, which are given here for 1 compound.

Broadly, the IC50 is the point on the concentration scale where inhibition reaches its midpoint.

Assay [1] has as its system PC-3. Put plainly: Antiproliferative activity against human PC3 cells assessed as growth inhibition after 48 hrs by MTT assay. The format is functional, cell-based. Conditions: PC-3, 48 h. In general terms: Formazan colour is commonly taken as a measure of viable cells.
Assay [2] deals with HeLa. The assay can be described thus: Antiproliferative activity against human HeLa cells assessed as growth inhibition after 48 hrs by MTT assay. It counts as functional, cell-based.

Each structure is given as a SMILES string.

For `COc1cccc2c1C(=O)c1c(O)c3c(c(O)c1C2=O)C[C@@](O)(C(=O)CO)C[C@@H]3O[C@H]1C[C@H](N)[C@H](O)[C@H](C)O1` [DOXORUBICIN], the IC50 stood at 1700 nM in assay [1] and 1500 nM in assay [2].
